Laboratory results published in patent publication US20070141203A1, “Beverages containing water-soluble vitamin E” (priority 2003, published 2007).
Like-named read-outs stand apart in the source and are kept apart here.

Columns and labels:
[1] = Turbidity of aqueous dispersions and solutions of vitamin E-containing components in demineralized water (Hach turbidimeter Model Ratio/XR); assay type: physicochemical; details: for Turbidity (Initially doped water): initial; for Turbidity (6 wks after doping): six weeks at ambient temperature
Description: Preparation of aqueous dispersions and solutions of vitamin E-containing components.
(§1) Sample 1: Vitamin E oil (0.15 g) was added to 1000 g of demineralized water. The mixture was homogenized for approximately 60 minutes using a Gifford-Wood homogenizer, Model 1 L form Greerco Corporation. The sample was very cloudy. The turbidity of the sample was measured using a Hach turbidimeter Model Ratio/XR. The turbidity of the demineralized water was also measured prior to addition of the vitamin E. The sample was stored at ambient temperature for six weeks. […] The sample was shaken well and the turbidity measured.
(§2) Sample 2: Vitamin E acetate oil (0.25 g) from Sigma-Aldrich was added to 1681 g of demineralized water. […] The turbidity of the dispersion was measured and then again after storage for six weeks at ambient temperature.
(§3) Sample 3: Vitamin E succinate powder (0.27 g) from Sigma-Aldrich was added to 1792 g of demineralized water. The mixture was homogenized for approximately 60 minutes. […] The turbidity of the dispersion was measured and then again after storage for six weeks at ambient temperature.
(§4) Sample 4: To 1988 g of demineralized water was added 1.49 g of a 20% solution by weight of Eastman Vitamin E TPGS™ in water prepared according to the method described in Example 1. This solution was stirred at ambient temperature using a magnetic stirrer for several minutes. […] The turbidity of the solution was measured and then measured again after storage at ambient temperature for six weeks.
(§5) Sample 5: To 1777 g of demineralized water was added 16.0 g of a 20% solution by weight of Eastman Vitamin E TPGS™ in water prepared according to the method described in Example 1. This solution was stirred at ambient temperature using a magnetic stirrer for several minutes. […] The turbidity of the solution was measured and then measured again after storage at ambient temperature for six weeks.
(§6) Sample 6: To 1790 g of demineralized water was added 0.27 g of a mixture consisting of d,l-α-tocopheryl acetate, modified food starch, and silica. This product is commercially available from Roche Vitamins, Inc., under the name “Dry Vitamin E 15% CC”. The aqueous mixture was agitated for about thirty minutes using a magnetic stirrer. […] The turbidity of the solution was measured and then re-measured after storage for six weeks at ambient temperature.
(§7) Sample 7: To 1802 g of demineralized water was added 0.27 g of a mixture consisting of d-α-tocopheryl acetate, Polysorbate 60, and ethyl alcohol. This product is commercially available from ADM under the name “E 230 Clear®”. The mixture was agitated for about ten minutes using a magnetic stirrer. […] The turbidity of the solution was measured and then re-measured after storage for six weeks at ambient temperature.

[2] = Visual appearance / dissolution of vitamin E-containing components in demineralized water, on preparation and during storage; assay type: physicochemical; details: for Appearance during / after storage: six weeks at ambient temperature
Description: as §1, §2, §3, §4, §5, §6, §7

[3] = for Turbidity (Initially doped beverage): immediately after addition
[4] = cited from earlier work
[5] = normal conditions; cited from earlier work
[6] = individuals or animals having difficulties absorbing naturally occurring, fat-soluble vitamin E; cited from earlier work
[7] = 150 +/- 5 ppm in demineralized water
[8] = 1800 +/- 5 ppm in demineralized water
[9] = Demineralized water, 151 ppm TPGS
[10] = Evian Natural Spring Water, 1800 ppm TPGS
[11] = Fanta Strawberry, 1500 ppm TPGS
[12] = Hansen's Energy Water - Lemon, 1500 ppm TPGS
[13] = Motts Apple Juice, 1400 ppm TPGS
[14] = Mountain Lightening, 1400 ppm TPGS
[15] = Ocean Spray White Cranberry, 1500 ppm TPGS
[16] = Sam's Choice - Raspberry, 1500 ppm TPGS
[17] = Twister - Kiwi/Strawberry, 1500 ppm TPGS

d-α-Tocopherol polyethylene glycol 1000 succinate [Vitamin E TPGS™]
Turbidity (Initially doped water) [1, 7]: 0.05 NTU | Turbidity (6 wks after doping) [1, 7]: 0.05 NTU | Turbidity (Initially doped water) [1, 8]: 0.1 NTU | Turbidity (6 wks after doping) [1, 8]: 0.42 NTU | Appearance / dissolution on preparation ([2]; about 150 ppm in demineralized water, after homogenizing or stirring): dissolved almost immediately | Appearance during / after storage ([2]; about 150 ppm in demineralized water): No solids or immiscible liquids appeared during storage | Appearance / dissolution on preparation ([2]; about 1800 ppm in demineralized water, after stirring): dissolved almost immediately | Appearance during / after storage ([2]; about 1800 ppm in demineralized water): No solids or immiscible liquids appeared during storage | Turbidity (Initially doped beverage) [3, 9]: 0.05 NTU | Turbidity (six weeks after doping) [3, 9]: 0.05 NTU | Turbidity (Initially doped beverage) ([3]; Diet Snapple, 1500 ppm TPGS): 2.7 NTU | Turbidity (six weeks after doping) ([3]; Diet Snapple, 1500 ppm TPGS): 3.1 NTU | Turbidity (Initially doped beverage) [3, 10]: 0.45 NTU | Turbidity (six weeks after doping) [3, 10]: 0.55 NTU | Turbidity (Initially doped beverage) [3, 11]: 0.4 NTU | Turbidity (six weeks after doping) [3, 11]: 0.5 NTU | Turbidity (Initially doped beverage) [3, 12]: 0.72 NTU | Turbidity (six weeks after doping) [3, 12]: 0.91 NTU | Turbidity (Initially doped beverage) [3, 13]: 1.4 NTU | Turbidity (six weeks after doping) [3, 13]: 2.2 NTU | Turbidity (Initially doped beverage) [3, 14]: 3.6 NTU | Turbidity (six weeks after doping) [3, 14]: 4.1 NTU | Turbidity (Initially doped beverage) [3, 15]: 4.9 NTU | Turbidity (six weeks after doping) [3, 15]: 5.8 NTU | Turbidity (Initially doped beverage) [3, 16]: 0.39 NTU | Turbidity (six weeks after doping) [3, 16]: 0.46 NTU | Turbidity (Initially doped beverage) [3, 17]: 2.72 NTU | Turbidity (six weeks after doping) [3, 17]: 2.99 NTU | solubility in water [4]: at least 200 g/L | stability / hydrolysis [5]: very stable and does not hydrolyze under normal conditions | bioavailability as source of vitamin E [6]: readily bioavailable source of vitamin E
